Source: PubChem
uPA generation – cell surface uPA generation inhibition; hit rate 0.31% among 330,000; cell surface uPA generation assay, qHTS; Potency, µM (highest dose often 38.3 µM), for inactives: at the top dose activity change, negative = inhibition, most hits filed as inhibitors; AID 540303; active = well fitted inhibition curve with a large enough effect; inconclusive = small, poorly fitted or top-dose-only effect; inactive = no such curve, though single readings can be large or run the other way; tested in mouse RAW 264.7 cells; note: potency is the fitted concentration of half-maximal effect; % is set by controls: 0 for no effect and ±100 for the full control effect; nearly all actives have a fitted effect of over 55% in size
miR-21 reporter – miR-21 reporter, rising signal; HeLa miR-21 FLuc reporter, luciferase, 48 h; Potency, µM (titrated, usually from 38.3 µM), without a hit: top-dose reporter change, positive = more light; AID 2288; 340,000 tested, under 10 active; active = well fitted rising curve with a large enough effect; inconclusive = small, poorly fitted or top-dose-only effect; inactive = no such curve, though single readings can be large or run the other way;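 further: % of control where 0% means no effect; miR-21 action dims this reporter so a rising signal means less miR-21 action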
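HeLa cells stably expressing CMV-driven firefly luciferase with a downstream miR-21 binding sequence, endogenously expressing miR-21, were treated with titrations (up to about 40uM final) for 48 hours at 37 degree Celsius. Luciferase luminescence was read after lysis.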
DT40 TDP1 CPT – growth inhibition of DT40 Tdp1-/-;hTDP1 cells with camptothecin (screen for TDP1 inhibitors); chicken DT40 Tdp1-/-;hTDP1 cells + 20 nM CPT, ATP luminescence, 48 h; Potency, µM (doses to about 46.2 µM), inactives show at the top dose activity change, negative = growth inhibition, most hits filed as inhibitors; AID 686979; hit rate 12% among 420,000; note: potency is the fitted concentration of half-maximal effect; % is set by controls: 0 for no effect and ±100 for the full control effect; nearly all actives have a fitted effect of over 55% in size
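Chicken DT40 Tdp1-/- cells complemented with human TDP1, 400 cells/well, exposed to compounds plus 20 nM camptothecin for at least 48 h at 37 C; viability read as ATP content by CellTiter-Glo luminescence.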
TDP1 cell noCPT – qHTS for Inhibitors of human tyrosyl-DNA phosphodiesterase 1 (TDP1): qHTS in cells in absence of CPT; DT40 Tdp1-/- hTDP1 cells, no CPT, ATP luminescence, 48 h; hit rate 15% among 420,000; AID 686978, 2013; Potency, µM (top dose mostly 46.2 µM), without a hit: top-dose activity change, negative = growth inhibition, hits mostly inhibitors; note: potency is the fitted concentration of half-maximal effect; % is set by controls: 0 for no effect and ±100 for the full control effect; nearly all actives have a fitted effect of over 55% in size
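Chicken DT40 Tdp1-/- cells complemented with human TDP1, screened without camptothecin (DMSO vehicle only), 400 cells/well. Compounds pin-transferred, cells incubated at 37 °C for at least 48 hr. Growth read as ATP-dependent luminescence (CellTiter-Glo, 30 min at RT).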
TDP1 block – blocks human tyrosyl-DNA phosphodiesterase 1; hit rate 0.28% among 350,000; Q9NUW8; recombinant TDP1, AlphaScreen DNA substrate cleavage; Potency, µM (series often up to 130 µM), inactives show at the highest dose activity change, negative = inhibition, usual class: inhibitors; note: potency is the fitted concentration of half-maximal effect; % is set by controls: 0 for no effect and ±100 for the full control effect; nearly all actives have a fitted effect of over 40% in size
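Compounds were preincubated with Tdp1 (1 nM final) for 15 min at room temperature before substrate (15 nM final) started a 5 min reaction; beads (10 ug/ml final) were then added for 10 min before AlphaScreen detection.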
The depositor's hits bear a star; ? = inconclusive; · = no result given; [ ] = another dose, or the depositor's remark. An excerpt weighted towards active compounds, which were near 16% of everything screened. Unless noted, calls come from the whole dose curve; as a rule, active = well fitted curve in the direction sought with a large enough effect; inconclusive = small, poorly fitted or top-dose-only effect, or another doubt; inactive = no such curve, though single readings can be large; an effect the other way counts as inactive or inconclusive.

The opening two compounds, ahead of the listing:
1) Cc1cccc(C)c1OCc1cc(C(=O)N2CCC(c3ccncc3)CC2)no1
2) O=C(COC(=O)c1ccc(F)cc1Cl)NCc1ccco1

| Compound | 1 | 2 |
| --- | --- | --- |
| uPA generation | -8.8% | 0.5% |
| miR-21 reporter | -14.0% | · |
| DT40 TDP1 CPT | 9.2µM* | -5.9% |
| TDP1 cell noCPT | 5.17µM* | -12.9% |
| TDP1 block | 2.5% | · |

The whole of this part, previewed entries included:
1) Cc1cccc(C)c1OCc1cc(C(=O)N2CCC(c3ccncc3)CC2)no1
2) O=C(COC(=O)c1ccc(F)cc1Cl)NCc1ccco1
3) CC(=O)c1ccc(NC(=O)CN(C)S(=O)(=O)c2cccc3nsnc23)cc1
4) c1cc2c3c(c1)c1c(n3CCNC2)CCCC1
5) Cc1c(CC(=O)N2CCC(C(=O)O)CC2)c(=O)oc2cc3c(cc12)CCC1(CCCCC1)O3
6) O=C(Cc1c(O)c2ccccc2oc1=O)c1ccc(F)cc1
7) O=C(Nc1ccc(S(=O)(=O)N2CCOCC2)cc1)c1ccc(F)cc1
8) O=C(Nc1ccc(S(=O)(=O)C(F)F)cc1)c1cccc(S(=O)(=O)N2CCOCC2)c1

| Compound | 1 | 2 | 3 | 4 | 5 | 6 | 7 | 8 |
| --- | --- | --- | --- | --- | --- | --- | --- | --- |
| uPA generation | -8.8% | 0.5% | · | · | -13.7% | 5.4% | 5.8% | -5.3% |
| miR-21 reporter | -14.0% | · | -1.1% | · | -20.1% | · | 3.5% | 24.9% |
| DT40 TDP1 CPT | 9.2µM* | -5.9% | -1.2% | ? | 0.9% | -15.7% | 6.1% | ? |
| TDP1 cell noCPT | 5.17µM* | -12.9% | 0.1% | 23.7µM* | -8.9% | -26.3% | -26.6% | 14.6µM* |
| TDP1 block | 2.5% | · | 4.7% | 21.4% | · | 0.0% | · | 3.1% |

Screen by screen, from the results shown:
Nos. 2 to 8 in TDP1 block read ·, 4.7%, 21.4%, ·, 0.0%, ·, 3.1%
Nos. 2 to 8 in TDP1 cell noCPT read -12.9%, 0.1%, 23.7µM*, -8.9%, -26.3%, -26.6%, 14.6µM*

(cont.)
9) O=C(Nc1cccc(S(=O)(=O)C(F)F)c1)c1ccc(S(=O)(=O)N2CCOCC2)cc1
10) O=C(Nc1ccncc1)c1cccc(S(=O)(=O)N2CCOCC2)c1
11) Cc1ccc(C(=O)NCCNC(=O)c2ccco2)cn1
12) COc1ccc(NC(=O)c2ccc(-c3ccc(-c4noc(C)n4)cc3C)cc2)cc1OCCN(C)C
13) COc1ccc(NC(=O)c2ccc(-c3ccc(-c4noc(C)n4)cc3C)cc2)cc1N1CCN(C)CC1
14) COc1ccc(NC(=O)c2ccc(-n3nc(C)cc3C)cc2)cc1OC
15) CC1(C)CN=C(c2ccccc2)NC1
16) Cn1c(SCC(=O)Nc2ccc3c(c2)OCO3)nnc1-c1cnccn1

| Compound | 9 | 10 | 11 | 12 | 13 | 14 | 15 | 16 |
| --- | --- | --- | --- | --- | --- | --- | --- | --- |
| uPA generation | -3.1% | 0.6% | -0.7% | · | ? | 1.0% | -0.3% | 6.0% |
| miR-21 reporter | 13.7% | · | -3.1% | · | · | -30.0% | · | -3.4% |
| DT40 TDP1 CPT | -14.7% | -7.1% | 1.6% | 5.17µM* | 2.59µM* | ? | -2.1% | -0.1% |
| TDP1 cell noCPT | 18.4µM* | ? | 7.1% | 2.59µM* | 2.06µM* | ? | -0.2% | -13.0% |
| TDP1 block | 4.5% | · | -10.3% | 21.3% | 19.4%[56.1 µM] | 4.0% | · | 6.8% |

17) CN(C)c1cccc(C(=O)Nc2ccc(-c3nc4ccccc4s3)cc2)c1
18) NC(=O)c1ccc(NC(=O)CCc2nc3ccccc3s2)cc1
19) CN(C(=O)OC(C)(C)C)c1ccc(-c2nc3ccccc3s2)cc1
20) CCS(=O)(=O)c1cccc(C(=O)Nc2ccc(-c3nc4ccccc4s3)c(O)c2)c1
21) O=C(Nc1ccc(Cc2nc3ccccc3s2)cc1)c1ccncc1
22) CC(C)Oc1ccc(C(=O)Nc2ccc(-c3nc4ccccc4s3)cc2)cc1
23) COc1ccc(NC(=S)/N=C(\N)Nc2nc(C)c3ccccc3n2)cc1
24) CCc1nnc(NC(=O)CSc2nnc(-c3cccnc3)n2CC)s1

| Compound | 17 | 18 | 19 | 20 | 21 | 22 | 23 | 24 |
| --- | --- | --- | --- | --- | --- | --- | --- | --- |
| uPA generation | · | 0.8% | 2µM* | · | -3.2% | · | -4.3% | -5.2% |
| miR-21 reporter | 23.2% | -0.3% | · | -13.1% | 13.0% | -34.1% | 20.7% | 5.1% |
| DT40 TDP1 CPT | ? | 1.1% | · | ? | ? | 10.3µM* | ? | 1.1% |
| TDP1 cell noCPT | 13µM* | -6.4% | · | ? | 11.6µM* | ? | ? | -2.2% |
| TDP1 block | 6.4% | 2.5% | · | -8.1% | · | 5.7% | 0.6% | 2.3% |

25) CC(C)c1c(C(=O)N/N=C/c2ccc(OCc3ccccc3)cc2)nnn1-c1nonc1N
26) COc1cc(/C=N/NC(=O)c2nnn(-c3nonc3N)c2C(C)C)ccc1OCc1ccccc1
27) CC(C)c1c(C(=O)N/N=C/c2ccc(C(F)(F)F)cc2)nnn1-c1nonc1N
28) CC(C)c1c(C(=O)N/N=C/c2ccoc2)nnn1-c1nonc1N
29) c1ccc(CNC2CC3CCC2C3)cc1 (centres undefined)
30) O=C(N/N=C/c1ccc2cccc(OCc3ccccc3)c2n1)c1ccc(Br)cc1
31) O=C(O)c1cccc(NC(=S)N/N=C/c2ccccc2OCc2ccc(Br)cc2)c1
32) COc1ccc(C(=O)N/N=C/c2ccc3cccc(OCc4ccccc4)c3n2)cc1

| Compound | 25 | 26 | 27 | 28 | 29 | 30 | 31 | 32 |
| --- | --- | --- | --- | --- | --- | --- | --- | --- |
| uPA generation | -17.5% | ? | -19.1% | -3.4% | 3.9% | -5.4% | -3.3% | -10.2% |
| miR-21 reporter | -18.6% | 3.6% | -1.3% | -6.1% | · | 0.2% | -60.5% | -2.7% |
| DT40 TDP1 CPT | ? | ? | 14.6µM* | -4.5% | 3.8% | 16.4µM* | ? | ? |
| TDP1 cell noCPT | ? | 20.6µM* | 13µM* | -7.0% | -10.2% | ? | ? | 8.2µM* |
| TDP1 block | 4.1% | 2.4% | -0.6% | 4.7% | · | 2.0% | 2.6% | 3.1% |

33) O=C(N/N=C/c1cccc(OCc2ccccc2)c1)c1ccc(Br)cc1
34) O=C(N/N=C/c1ccncc1)c1ccc(OCc2ccccc2)cc1
35) Cc1c(C(=O)N2CCOCC2)sc(NC(=O)CCl)c1C#N
36) Cc1c(C(=O)N2CCOCC2)sc(NC(=O)c2ccc([N+](=O)[O-])cc2)c1C#N
37) Cc1ccc(OCC(=O)Nc2ccc3[nH]c(=O)sc3c2)cc1
38) O=C(COc1ccc(Cl)cc1Br)Nc1ccncc1
39) Cc1ccccc1OCC(=O)Nc1ccc2[nH]c(=O)sc2c1
40) O=C(CCCOc1ccc(Cl)cc1Cl)Nc1ccncc1

| Compound | 33 | 34 | 35 | 36 | 37 | 38 | 39 | 40 |
| --- | --- | --- | --- | --- | --- | --- | --- | --- |
| uPA generation | 1.9% | -9.9% | -5.7% | 3.8% | · | -2.1% | · | -5.6% |
| miR-21 reporter | -6.9% | -8.5% | 5.0% | 6.2% | 0.0% | -22.0% | 1.1% | 20.7% |
| DT40 TDP1 CPT | ? | -24.6% | 13µM* | ? | 5.4% | ? | ? | ? |
| TDP1 cell noCPT | 18.4µM* | 0.0% | 11.6µM* | ? | -24.8% | 10.3µM* | 16.4µM* | ? |
| TDP1 block | 2.7% | 6.0% | 4.1%[0.0935 µM] | 8.5% | -10.0% | · | 2.5% | 0.7% |

41) CC(=O)Nc1ccc(NC(=O)COc2cccc3ccccc23)cc1
42) CC(=O)Nc1cccc(NC(=O)COc2ccccc2C)c1
43) CCN(CC(=O)NCc1cccs1)c1ccc(S(=O)(=O)N2CCN(C)CC2)cn1
44) O=C(NCc1ccccc1)C(=O)NCC1CCCN1S(=O)(=O)c1cccs1 (centres undefined)
45) COc1ccc(OC(=O)c2nc(SCc3ccccc3F)ncc2Cl)cc1
46) Cc1ccccc1OCC(=O)Nc1ccncc1
47) Cc1ccccc1OCC(=O)Nc1ccc(Cc2ccncc2)cc1
48) Cc1ccc(OCC(=O)Nc2ccncc2)c(C)c1

| Compound | 41 | 42 | 43 | 44 | 45 | 46 | 47 | 48 |
| --- | --- | --- | --- | --- | --- | --- | --- | --- |
| uPA generation | · | -4.8% | -3.7% | 1.6% | · | -0.5% | -15.5% | 14.6% |
| miR-21 reporter | · | -0.6% | -4.5% | · | -2.3% | 1.3% | 3.2% | -11.7% |
| DT40 TDP1 CPT | 9.2µM* | 11.6µM* | -4.5% | 3.3% | -8.8% | ? | ? | 20.6µM* |
| TDP1 cell noCPT | 8.2µM* | -69.5% | -17.4% | -1.2% | -21.8% | 16.4µM* | ? | 8.2µM* |
| TDP1 block | · | · | -2.6% | 2.0% | -4.7% | 4.7% | 1.2% | · |

49) Cc1cccc(OCC(=O)Nc2ccncc2)c1
50) C#CC(=O)CCC1CCCN1C(=O)OC(C)(C)C (centres undefined)
51) CCN1CCN(CC(=O)n2c3c(c4ccccc42)CC(C)CC3)CC1 (centres undefined)
52) CCOC(=O)CSc1nc2ccccc2c(=O)n1CC1COc2ccccc2O1 (centres undefined)

| Compound | 49 | 50 | 51 | 52 |
| --- | --- | --- | --- | --- |
| uPA generation | -0.2% | -5.1% | -1.4% | -0.5% |
| miR-21 reporter | · | · | -12.5% | -5.7% |
| DT40 TDP1 CPT | 3.9% | 14.6µM* | ? | ? |
| TDP1 cell noCPT | ? | ? | 18.4µM* | 18.4µM* |
| TDP1 block | · | 0.3% | 7.8% | -1.5% |
